# According to article PMC8385015, “Tumour-on-chip microfluidic platform for assessment of drug pharmacokinetics and treatment response” (Communications Biology, 2021):
# Key:
# [1] = In vivo PK profile determination in mouse plasma (LC-MS/MS, population-based PK model)
# SW620 spheroids = conditions: static 2D or 3D, Supplementary Fig. 1
# [2] = male, Swiss athymic nu/nu, in vivo, 10 mg/kg
smiles,measurement,setting,value
"CN(C)CCCOc1ccc(-c2ccc3ncc4c(c3c2)n(C2CCOCC2)c(=O)n4C)cn1 [AZD0156, 8-{6-[3-(Dimethylamino)propoxy]pyridin-3-yl}-3-methyl-1-(tetrahydro-2 H-pyran-4-yl)-1,3-dihydro-2 H-imidazo[4,5-c]quinolin-2-one]",Cmax,[1]; [2],192 nM
same,concentration at 1 h,[1]; [2],188 nM
same,concentration at 2 h,[1]; [2],192 nM
same,concentration at 3 h,[1]; [2],174 nM
same,concentration at 4 h,[1]; [2],154 nM
same,concentration at 5 h,[1]; [2],137 nM
same,concentration at 6 h,[1]; [2],122 nM
same,concentration at 7 h,[1]; [2],108 nM
same,concentration at 8 h,[1]; [2],95.6 nM
same,concentration at 9 h,[1]; [2],84.7 nM
same,concentration at 10 h,[1]; [2],75.2 nM
same,concentration at 11 h,[1]; [2],66.7 nM
same,concentration at 12 h,[1]; [2],59.1 nM
same,concentration at 13 h,[1]; [2],52.7 nM
same,concentration at 14 h,[1]; [2],46.6 nM
same,concentration at 15 h,[1]; [2],41.5 nM
same,concentration at 16 h,[1]; [2],36.7 nM
same,concentration at 17 h,[1]; [2],32.6 nM
same,concentration at 18 h,[1]; [2],28.8 nM
same,concentration at 19 h,[1]; [2],25.7 nM
same,concentration at 20 h,[1]; [2],22.7 nM
same,concentration at 21 h,[1]; [2],20.2 nM
same,concentration at 22 h,[1]; [2],17.8 nM
same,concentration at 23 h,[1]; [2],15.9 nM
same,concentration at 24 h,[1]; [2],14.1 nM
same,ka,"[1]; population PK model parameter, mean",1.4 h⁻¹
same,"monotherapy effect on spheroid size, morphology, viability",SW620 spheroids,"no spheroid size, morphology or viability effect"
